# Cyclic peptide permeability, from CycPeptMPDB

Source: CycPeptMPDB (Li et al. 2023), which took these values from Townsend et al. 2020, doi:10.26434/chemrxiv.13335941.v1.

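Lipid, pH, incubation time, direction and concentration are not recorded in the data file. The list need not hold all peptides of the study. Entries at the database's floor value (log10 P of -10) are not listed.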

PAMPA measures passive passage through an artificial lipid membrane.
Values are log10 P with P in cm/s, so -5 is more permeable than -7.

| PAMPA (log10 cm/s) | SMILES |
|---|---|
| -6.08 | CC(C)C[C@H]1NC(=O)[C@@H]2CCCN2C(=O)C[C@H](Cc2ccccc2)NC(=O)CN(Cc2ccccc2)C(=O)C[C@H](Cc2ccccc2)NC(=O)[C@H](Cc2ccccc2)NC1=O |
| -6.35 | CC(C)C[C@@H]1NC(=O)[C@H]2CCCN2C(=O)[C@@H](CC(C)C)NC(=O)CN(Cc2ccccc2)C(=O)[C@H](C)N(C)C(=O)[C@H]2CCCN2C(=O)[C@H](Cc2ccccc2)NC1=O |
| -4.99 | CC(C)C[C@@H]1C(=O)N[C@@H](Cc2ccccc2)C(=O)N[C@@H](Cc2ccccc2)CC(=O)N(C)[C@@H](CC(C)C)C(=O)N[C@@H](Cc2ccccc2)CC(=O)N2CCC[C@@H]2C(=O)N1C |
| -6.15 | CC(C)C[C@@H]1C(=O)N2CCC[C@@H]2C(=O)N(C)[C@H](CC(C)C)C(=O)N[C@@H](Cc2ccccc2)C(=O)N2CCC[C@@H]2C(=O)N[C@H](C)C(=O)N(Cc2ccccc2)CC(=O)N1C |
| -5.64 | CCCN1CC(=O)N(Cc2ccccc2)CC(=O)N[C@@H](CC(C)C)C(=O)N2CCC[C@@H]2C(=O)N[C@@H](CC(C)C)C(=O)N[C@@H](Cc2ccccc2)C1=O |
| -5.47 | CC(C)C[C@@H]1C(=O)N[C@@H](Cc2ccccc2)C(=O)N[C@@H](Cc2ccccc2)CC(=O)N(Cc2ccccc2)CC(=O)N[C@@H](Cc2ccccc2)CC(=O)N2CCC[C@H]2C(=O)N1C |
| -5.33 | CCCN1CC(=O)N(C)[C@H](CC(C)C)C(=O)N(Cc2ccccc2)CC(=O)N2CCC[C@@H]2C(=O)N[C@H](CC(C)C)C(=O)N[C@@H](Cc2ccccc2)C1=O |
| -6.37 | CC(C)C[C@@H]1NC(=O)[C@@H]2CCCN2C(=O)CN(Cc2ccccc2)C(=O)CN(Cc2ccccc2)C(=O)[C@H](C)NC(=O)[C@H]2CCCN2C(=O)[C@H](Cc2ccccc2)NC1=O |
| -5.22 | CC(C)C[C@@H]1C(=O)N(C)[C@H](CC(C)C)C(=O)N2CCC[C@H]2C(=O)N[C@H](CC(C)C)C(=O)N[C@@H](Cc2ccccc2)C(=O)N[C@@H](Cc2ccccc2)CC(=O)N1C |
| -5.99 | CCCN1CC(=O)N[C@@H](CC(C)C)C(=O)N[C@@H](Cc2ccccc2)CC(=O)N2CCC[C@H]2C(=O)N[C@@H](CC(C)C)C(=O)N[C@@H](Cc2ccccc2)C1=O |
| -4.90 | CC(C)C[C@H]1C(=O)N[C@@H](Cc2ccccc2)CC(=O)N2CCC[C@H]2C(=O)N(Cc2ccccc2)CC(=O)N[C@@H](Cc2ccccc2)C(=O)N(C)[C@@H](C)C(=O)N1C |
| -5.28 | CCCN1CC(=O)N[C@@H](CC(C)C)C(=O)N(Cc2ccccc2)CC(=O)N2CCC[C@H]2C(=O)N(Cc2ccccc2)CC(=O)N[C@@H](Cc2ccccc2)C1=O |
| -5.58 | CC(C)C[C@@H]1C(=O)N2CCC[C@H]2C(=O)N(C)[C@H](CC(C)C)C(=O)N[C@@H](Cc2ccccc2)C(=O)N2CCC[C@@H]2C(=O)N[C@@H](Cc2ccccc2)CC(=O)N(Cc2ccccc2)CC(=O)N1C |
| -5.87 | CCCN1CC(=O)N(Cc2ccccc2)CC(=O)N(Cc2ccccc2)CC(=O)N2CCC[C@H]2C(=O)N(Cc2ccccc2)CC(=O)N[C@@H](Cc2ccccc2)C1=O |
| -5.63 | CC(C)C[C@H]1C(=O)N[C@@H](Cc2ccccc2)C(=O)N[C@H](C)C(=O)N(Cc2ccccc2)CC(=O)N[C@@H](Cc2ccccc2)CC(=O)N2CCC[C@@H]2C(=O)N1C |
| -5.96 | CC(C)C[C@H]1NC(=O)[C@H]2CCCN2C(=O)C[C@H](Cc2ccccc2)NC(=O)CN(Cc2ccccc2)C(=O)C[C@H](Cc2ccccc2)NC(=O)[C@H](Cc2ccccc2)NC1=O |
| -5.45 | CC(C)C[C@H]1C(=O)N[C@@H](Cc2ccccc2)CC(=O)N2CCC[C@@H]2C(=O)N(Cc2ccccc2)CC(=O)N[C@@H](Cc2ccccc2)C(=O)N(C)[C@@H](C)C(=O)N1C |
| -5.83 | CC(C)C[C@H]1C(=O)N(Cc2ccccc2)CC(=O)N2CCC[C@@H]2C(=O)N(Cc2ccccc2)CC(=O)N[C@@H](Cc2ccccc2)C(=O)N[C@@H](Cc2ccccc2)CC(=O)N1C |

Excerpt, the opening 2 entries:

| SMILES | PAMPA (log10 cm/s) |
|---|---|
| CC(C)C[C@H]1NC(=O)[C@@H]2CCCN2C(=O)C[C@H](Cc2ccccc2)NC(=O)CN(Cc2ccccc2)C(=O)C[C@H](Cc2ccccc2)NC(=O)[C@H](Cc2ccccc2)NC1=O | -6.08 |
| CC(C)C[C@@H]1NC(=O)[C@H]2CCCN2C(=O)[C@@H](CC(C)C)NC(=O)CN(Cc2ccccc2)C(=O)[C@H](C)N(C)C(=O)[C@H]2CCCN2C(=O)[C@H](Cc2ccccc2)NC1=O | -6.35 |